# Sampled rows, rich in hits. Any-hit rate of the full collection: about 0.45%.
# Yeast UUG start-1: yeast start codon fidelity modulation | S. cerevisiae UUG-firefly luciferase reporter, luminescence/redox ratio | activity score, % at 18.7 µM | hit rate 0.13% among 350,000 | AID 602363;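 active means replicate mean at a twofold rise or more, about +100% in these data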;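 further: firefly luciferase made from a UUG start codon reports start codon fidelity; reporter light over untreated wells divided by growth signal over untreated wells; some hits fall short of that in this replicate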
# PglD DTNB: inhibitors of Campylobacter jejuni PglD acetyltransferase; purified PglD enzyme, DTNB colorimetric CoA detection; inhibition, % at 12.5 µM; 360,000 compounds, 0.098% hits; AID 602405; in the data active means inhibition above about 16%, passing the limit was not always enough
# DDE Tn6 FP inh: disrupts Tn6 cyclic peptide binding to fibrin D-Dimer-E complex. Fibrin DD(E) TRITC-Tn6 fluorescence polarization displacement. P02675. inhibition, % at 8.3 µM. AID 720509. 370,000 compounds, 0.21% hits;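 active means inhibition above a per-campaign cutoff: mean of compounds within control limits plus 3 SD, cut at about 15% in these data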;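 further: 0% = median of all compound wells on the plate and 100% = blocking peptide control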
# DDE Tn7 FP inh: DD(E)-Tn7 binding inhibition, primary FP screen | P02675 | FP displacement of FITC-Tn7 peptide from fibrin DD(E); 0% = median of compound wells per plate | inhibition, % at 8.3 µM | 370,000 compounds, 0.13% hits | AID 720508;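 active means inhibition above the mean of compounds falling within the control limits plus 3 SD of them, cut at about 14% in these data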;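 further: 0% = plate median of compound wells and 100% = 10 µM Aha-Tn7 peptide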
#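 Assay system: Human fibrin DD(E) protein | Medium: Tris buffer with calcium and detergent, pH 7.8 | Reagent: 0.1 µM fluorescent Tn7 | Compound dosing: Single point at 8.3 µM | Times: 10 min preincubation, 3 h with tracer, room temperature | Detection: Fluorescence polarization of the labelled Tn7 tracer | Controls: Aha-Tn7 high control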
# Yeast UUG start-2: alters UUG start codon use in yeast | shares compounds with Yeast UUG start-1 | S. cerevisiae UUG-start firefly luciferase, luminescence, 4 h; 100% means double the DMSO signal | activation, % at 38 µM | 540 tested, under 10 active;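 active means signal increase whose fitted curve reaches an absolute level of 40 at a concentration under 10 µM; inactive means activity opposite to the expected increase, or the rest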
# An asterisk follows results filed as active; i = inactive; x = not tested or not shown; ! = not active in a repeat.
nr | DDE Tn7 FP inh | Yeast UUG start-2 | Yeast UUG start-1 | DDE Tn6 FP inh | PglD DTNB | Structure
1 | -1 | x | -9 | -12 | 3 | CCN1CCN(Cc2ccc(NC(=O)c3ccc(C)c(NC(=O)c4nccn4C)c3)cc2C(F)(F)F)CC1
2 | 1 | 13 | 131*! | -1 | -3 | CCN1CCN(Cc2ccc(NC(=O)c3ccc(C)c(NC(=O)N4CCNC4=O)c3)cc2C(F)(F)F)CC1
3 | x | x | 5 | x | 2 | C[C@@H]1CN([C@@H](C)CO)S(=O)(=O)c2ccc(C3=CCCCC3)cc2O[C@H]1CN(C)C(=O)c1ccc(F)cc1
4 | -6 | 6 | 444* | -6 | 6 | Cc1cc(O)ccc1C1(c2ccc(O)cc2C)OC(=O)c2ccccc21
5 | x | x | 8 | x | 2 | C[C@@H]1CN([C@@H](C)CO)C(=O)c2cccc(N(C)C)c2O[C@H]1CN(C)C(=O)Nc1ccc2c(c1)OCO2
6 | -5 | -1 | active | -2 | 0 | O=C1CCC(=O)N1OCCCOc1ccc2c(c1)CCC2
7 | 1 | x | -18 | 3 | -4 | O=C1CCC(=O)N1OCCOc1ccc2c(c1)CCC2
8 | x | x | 1 | x | 1 | CO[C@H]1CN(C)C(=O)c2ccc(NC(=O)c3nc4ccccc4s3)cc2OC[C@H](C)N(Cc2ccncc2)C[C@@H]1C
9 | x | i | 140* | x | -2 | CO[C@H]1CN(C)C(=O)c2ccc(NC(=O)c3nc4ccccc4s3)cc2OC[C@@H](C)N(Cc2ccncc2)C[C@H]1C
10 | 1 | 0 | 164* | -3 | 0 | Cc1ccc(N2CC(C(=O)Nc3nnc(SCC(N)=O)s3)CC2=O)cc1 (stereo not given)
11 | x | x | -12 | x | 3 | CN(C)CC(=O)Nc1ccc2c(c1)[C@@H]1C[C@@H](CC(=O)N3CCOCC3)O[C@@H](CO)[C@@H]1O2
12 | 1 | 8 | 449* | 5 | -1 | CC(C)C(=O)c1cn(CC(=O)NCC2CCCO2)c2ccccc12 (stereo not given)
13 | 1 | -6 | x | -5 | x | CCc1cccc2c(C(=O)C(F)(F)F)cn(CC(=O)NCC3CCCO3)c12 (stereo not given)
14 | x | x | -4 | x | -2 | CO[C@H]1CN(C)C(=O)c2cc(NC(C)=O)ccc2OC[C@@H](C)N(C(=O)CN2CCOCC2)C[C@@H]1C
15 | x | x | -1 | x | -1 | COCC#Cc1ccc2c(c1)O[C@@H](CN(C)S(=O)(=O)c1ccc(C)cc1)[C@H](C)CN([C@H](C)CO)S2(=O)=O
16 | 6 | x | -9 | 4 | -1 | OC(C#Cc1ccccc1)(c1ccccc1)c1ccccc1
17 | 5 | 7 | x | 7 | x | CC(C)[N+](C)(C)CC#CC(O)(c1ccccc1)c1ccccc1
18 | 5 | 5 | x | -1 | x | C[N+]1(CC#CC(O)(c2ccccc2)c2ccccc2)CCCC1
19 | -5 | 2 | 229* | -1 | 5 | O=C(CNC(=O)c1ccco1)N=Nc1c(O)n(CCc2ccccc2)c2ccccc12
20 | x | i | 214* | x | -2 | C[C@H]1CN([C@@H](C)CO)S(=O)(=O)c2ccc(-c3cccnc3)cc2O[C@@H]1CN(C)C(=O)c1cccc(F)c1
21 | x | x | -15 | x | 1 | C[C@@H]1CN([C@H](C)CO)S(=O)(=O)c2ccc(-c3cccc(F)c3)cc2O[C@@H]1CN(C)S(=O)(=O)c1ccc(F)cc1
22 | x | x | 3 | x | -2 | C[C@@H]1CN([C@@H](C)CO)S(=O)(=O)c2ccc(-c3cccnc3)cc2O[C@H]1CN(C)C(=O)c1cccc(F)c1
23 | x | i | 106* | x | 0 | Cc1ccc(S(=O)(=O)N(C)C[C@H]2Oc3cc(-c4cccc(F)c4)ccc3S(=O)(=O)N([C@@H](C)CO)C[C@@H]2C)cc1
24 | x | i | 121* | x | 4 | CC(C)CC#Cc1ccc2c(c1)O[C@@H](CN(C)C(=O)c1cccnc1)[C@@H](C)CN([C@@H](C)CO)S2(=O)=O
25 | x | x | 7 | x | 0 | COc1ccc(S(=O)(=O)N(C)C[C@H]2OCCCC[C@@H](C)Oc3ccc(NS(=O)(=O)c4ccccc4)cc3C(=O)N([C@@H](C)CO)C[C@H]2C)cc1
26 | x | x | 16 | x | 2 | Cc1ccc(S(=O)(=O)Nc2ccc3c(c2)C(=O)N([C@H](C)CO)C[C@@H](C)[C@H](CN(C)C(=O)c2ccccc2)OCCCC[C@@H](C)O3)cc1
27 | x | i | 72* | x | 4 | COC(=O)C[C@@H]1C[C@@H]2c3cc(NC(=O)Nc4ccccc4F)ccc3O[C@@H]2[C@@H](CO)O1
28 | x | i | 137* | x | 2 | COCCNC(=O)C[C@H]1C[C@H]2c3cc(NC(=O)c4ccc5c(c4)OCO5)ccc3O[C@H]2[C@@H](CO)O1
29 | x | x | 7 | x | 2 | COCCNC(=O)C[C@H]1C[C@@H]2c3cc(NC(=O)c4ccc5c(c4)OCO5)ccc3O[C@@H]2[C@@H](CO)O1

# Four entries already listed, ordered by the number in DDE Tn6 FP inh, ascending:
no. | molecule | DDE Tn6 FP inh
10 | Cc1ccc(N2CC(C(=O)Nc3nnc(SCC(N)=O)s3)CC2=O)cc1 (stereo not given) | -3
6 | O=C1CCC(=O)N1OCCCOc1ccc2c(c1)CCC2 | -2
19 | O=C(CNC(=O)c1ccco1)N=Nc1c(O)n(CCc2ccccc2)c2ccccc12 | -1
12 | CC(C)C(=O)c1cn(CC(=O)NCC2CCCO2)c2ccccc12 (stereo not given) | 5
